# Assay results from patent US20090263523A1, “Enhancer of Cholinesterase Activity” (published 2009).
# How the values were obtained:
# Conditions in all cases: male ddY mice, GA 1200 mg/kg/day, CP 8 mg/kg/day
# [1] = test system: glutamate oxaloacetate transaminase(GOT); test: Serum glutamate oxaloacetate transaminase activity in mice after 4 weeks oral administration of CP and/or GA
# [2] = test system: lactate dehydrogenase(LDH); test: Serum lactate dehydrogenase activity in mice after 4 weeks oral administration of CP and/or GA
# Cholinesterase(ChE) = test: Serum cholinesterase activity in mice after 4 weeks oral administration of CP and/or GA
# [3] = test system: glutamate pyruvate transaminase(GPT); test: Serum glutamate pyruvate transaminase activity in mice after 4 weeks oral administration of CP and/or GA
# [4] = serum 24 h after final administration, mean±SE, 5 mice
structure (smiles),measurement,setting,value
CCOP(=S)(OCC)Oc1nc(Cl)c(Cl)cc1Cl,Effect on serum GOT (in words),[1],slightly increased
same,"Enzymic activity in serum, GOT",[1]; [4],106.9 ± 30.7 IU/L
same,Effect on serum LDH (in words),[2],slightly increased
same,"Enzymic activity in serum, LDH",[2]; [4],527.9 ± 35.1 IU/L
same,Effect on serum ChE activity (in words),Cholinesterase(ChE),remarkably decreased
same,"Enzymic activity in serum, ChE",Cholinesterase(ChE); [4],9.7 ± 3.2 IU/L
same,Effect on serum GPT (in words),[3],slightly increased
same,"Enzymic activity in serum, GPT",[3]; [4],8.0 ± 1.2 IU/L
